# Experimental data taken from PubChem BioAssay AID435003 (Sanford-Burnham Center for Chemical Genomics, 2010).
# The list shows a part of the results, in another mix than the full data. Some tests of the compounds listed are not included; inactive here does not mean inactive elsewhere. The source made the active and inactive calls. Rule as the data show it: active = inhibition above about 50%; inactive = the rest.
# Assay: inhibitors of induced NF-kB luciferase reporter, primary screen, TCR NF-kB activation inhibitor project, cell-based, luminescence, uHTS (AID 435003)
# Details: Jurkat, PMA/ionomycin-induced NF-kB luciferase reporter, at 4 µM, hits give high values
row,SMILES,inhibition
1,COc1cc(C(=O)NCC2(N(C)C)CCCCC2)c([N+](=O)[O-])cc1OC,inactive: -13.4%
2,CN(C)C1(CNC(=O)c2ccc(Br)cc2)CCCCC1,inactive: -25.6%
3,O=C(NCC1(N2CCCCC2)CCCCC1)c1cccc(Cl)c1,inactive: 9.43%
4,COc1cccc(C(=O)NCC2(N3CCCCC3)CCCCC2)c1,inactive: -2.99%
5,COc1ccc(Cl)cc1C(=O)NCC1(N(C)C)CCCCC1,inactive: -5.93%
6,O=C(OC1CN2CCC1CC2)C(CO)(c1ccccc1)c1ccccc1 (centres undefined),inactive: 6.9%
7,CN(C)c1cccc(C(=O)NCC2(N(C)C)CCCCC2)c1,inactive: 1.52%
8,CC(C)Oc1ccc(C(=O)NCC2(N(C)C)CCCCC2)cc1,inactive: -12.6%
9,COc1ccc(Br)c(C(=O)NCC2(N3CCCCC3)CCCCC2)c1,inactive: -8.29%
10,CN1[C@@H]2CC[C@H]1CC(OC(=O)C(O)(c1ccccc1)c1ccccc1)C2 (some centres undefined),inactive: -24.2%
11,O=C(NCC1(N2CCCCC2)CCCCC1)c1cc([N+](=O)[O-])ccc1Cl,inactive: -11.7%
12,Cc1ccc(C(=O)NCC2(N3CCCCC3)CCCCC2)cc1,inactive: -1.19%
13,CC(C)N1C(=O)CC2(CCN(CCOC(=O)C(O)(c3ccccc3)c3ccccc3)CC2)C1=O,inactive: -8.46%
14,CCN(CC)CC(C)C(C)OC(=O)C(O)(c1ccccc1)c1ccccc1 (centres undefined),inactive: 0.0796%
15,COc1cc(SC)ccc1C(=O)NCC1(N(C)C)CCCCC1,inactive: -3.55%
16,Cc1ccccc1C(=O)NCC1(N2CCCCC2)CCCCC1,inactive: -6.2%
17,CN(C)c1ccc(C(=O)NCC2(N(C)C)CCCCC2)cc1,inactive: -32.9%
18,CN(C)C1CCCC1OC(=O)C(O)(c1ccccc1)c1ccccc1 (centres undefined),inactive: 9.51%
19,CCN1CCCC(OC(=O)C2(O)c3ccccc3C=Cc3ccccc32)C1 (centres undefined),inactive: 6.93%
20,Cc1cc(C(=O)NCC2(N3CCCCC3)CCCCC2)ccc1[N+](=O)[O-],inactive: -19.4%
21,O=C(NCC1(N2CCCCC2)CCCCC1)c1cccc(Br)c1,inactive: 4.97%
22,COc1ccc(C(=O)NCC2(N(C)C)CCCCC2)cc1,inactive: -4.01%
23,C=CCN1CCN(CCOC(=O)C(O)(c2ccccc2)c2ccccc2)CC1,inactive: 8.1%
24,O=C(NCC1(N2CCCCC2)CCCCC1)c1cc(F)c(F)cc1Cl,inactive: 7.29%
